For orientation: EC50 means the concentration at which the effect is half-maximal.

Sequences of proteins named here, by UniProt entry; tags and fusion partners are left off.
UniProt P13945, whole entry: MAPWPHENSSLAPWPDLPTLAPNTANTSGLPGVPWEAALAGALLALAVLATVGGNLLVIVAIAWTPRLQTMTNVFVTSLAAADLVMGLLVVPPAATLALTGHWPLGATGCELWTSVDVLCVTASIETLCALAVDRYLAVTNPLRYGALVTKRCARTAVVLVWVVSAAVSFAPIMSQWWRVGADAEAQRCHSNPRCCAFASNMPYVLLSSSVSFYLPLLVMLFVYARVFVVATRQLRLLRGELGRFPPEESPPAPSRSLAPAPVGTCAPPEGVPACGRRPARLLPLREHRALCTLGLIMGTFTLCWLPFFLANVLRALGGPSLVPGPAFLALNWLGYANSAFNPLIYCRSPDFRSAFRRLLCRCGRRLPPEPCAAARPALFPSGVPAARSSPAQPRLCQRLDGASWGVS

Like-named read-outs stand apart in the source and are kept apart here.

EC50 data for 2 compounds are collected here from patent US6699860B2, “Di-substituted aminomethyl-chroman derivative beta-3 adrenoreceptor agonists” (Bayer Pharmaceuticals Corporation, priority 2000, dated 2004).

For this test, the target named is human beta-3-adrenergic receptor (Homo sapiens, UniProt P13945). The test is described as follows: cAMP production (SPA) in CHO cells stably expressing human beta-3-adrenergic receptor, agonist activity. As to conditions: read-out: Beta-3 Agonistic Activity, EC50 values, cAMP production in CHO cells expressing human beta-3-adrenergic receptor, compounds binned (≦1 μM or >1 μM). On the technique in general: Changes in cAMP serve as a functional read-out for many G protein-coupled receptors.

Consider `O=C(O)c1ccc(-c2ccc3c(c2)CC[C@H](CNC[C@H](O)CSc2ccccc2)O3)cc1`, for which the EC50 (tested form: HCl) is at most 1000 nM.

`COCCNc1cc(-c2ccc3c(c2)CC[C@H](CNC[C@H](O)COc2ccccc2)O3)ccc1C(=O)O`: the EC50 was at most 1000 nM.
